Test results reported in patent US6420131B1, “Use of fluorescein aryl ethers in high throughput cytochrome P450 inhibition assays” (Gentest Corporation, priority 1999, dated 2002).

Sequences of proteins named here, by UniProt entry; tags and fusion partners are left off.
UniProt P08684, whole entry: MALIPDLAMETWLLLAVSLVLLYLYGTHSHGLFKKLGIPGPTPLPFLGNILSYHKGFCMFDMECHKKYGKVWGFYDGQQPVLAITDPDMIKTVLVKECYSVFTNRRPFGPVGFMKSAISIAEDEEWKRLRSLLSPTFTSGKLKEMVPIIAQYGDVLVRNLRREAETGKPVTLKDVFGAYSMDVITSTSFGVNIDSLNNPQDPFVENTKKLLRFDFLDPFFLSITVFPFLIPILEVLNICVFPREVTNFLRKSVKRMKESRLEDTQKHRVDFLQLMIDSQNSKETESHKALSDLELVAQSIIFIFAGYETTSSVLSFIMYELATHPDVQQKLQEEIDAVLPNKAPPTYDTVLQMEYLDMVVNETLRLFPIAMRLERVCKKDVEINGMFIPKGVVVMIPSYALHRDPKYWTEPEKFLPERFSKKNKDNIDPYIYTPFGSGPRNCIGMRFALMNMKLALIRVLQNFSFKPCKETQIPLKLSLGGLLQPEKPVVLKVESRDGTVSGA

Target: human CYP3A4 (Homo sapiens, UniProt P08684)

Range: 10
SMILES: CCC(C)n1ncn(-c2ccc(N3CCN(c4ccc(OCC5COC(Cn6cncn6)(c6ccc(Cl)cc6Cl)O5)cc4)CC3)cc2)c1=O (stereo not shown) [Itraconazole]
